Measurements reported in patent publication US6399568B1, “Cyclic tetrapeptide derivatives and medicinal use thereof” (Japan Energy Corporation, priority 1997, dated 2002).

Biological target: Mouse histone deacetylase
Assay type: biochemical
Conditions: enzyme from FM3A cells; [3H]acetyl histone; 37° C. 10 minutes
Protocol: In an enzyme system using a radio-labelled acetylated histone as a substrate, histone deacetylase enzyme inhibiting activity was evaluated. The basic conditions were in accordance with the method of Yoshida et al. (J. Biol. Chem., 265, 17174-17179, 1990).
Mouse histone deacetylase to be used was partially purified from FM3A cells. Cells were suspended in HDA buffer (15 mM potassium phosphate, 5% glycerol, 0.2 mM EDTA, pH 7.5), homogenized and centrifuged (35000×g, 10 min) to collect the nuclei which in turn were homogenized in the same buffer containing 1 M (NH4)2SO4. After ultrasonic disruption and centrifugation, the concentration of (NH4)2SO4 in the supernatant was increased to 3.5 M to precipitate deacetylase enzyme proteins. This precipitate was redissolved in HDA buffer, dialyzed against HDA buffer, applied to DEAE-cellulose column and eluted in NaCl gradient. Active fractions were used as a histone deacetylase enzyme solution.
As a substrate, [^3H]acetyl histone was used. […]
An assay was performed by adding a compound to be tested at a given concentration while using a no-addition control group, and by incubating the substrate solution and the enzyme solution at 37° C. for 10 minutes (reaction volume, 100 μl). The enzyme reaction was stopped by adding 10 μl of concentrated hydrochloric acid and the excised [^3H]acetate was extracted with ethyl acetate for radioactivity measurement. […]

Structure (SMILES): CC(/C=C/C(=O)NO)=C\[C@@H](C)C(=O)c1ccc(N(C)C)cc1 [Trichostatin A, trichostatin A, reference compound]
- IC50: 1.44 nM
